Measured values: PubChem BioAssay AID588352 (The Scripps Research Institute Molecular Screening Center, 2011)
The entries are a selection whose mix differs from that of the whole data set. Active and inactive are the calls of the source.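 Rule for the calls: active = inhibition above a per-campaign cutoff, the mean of all compounds plus 3 SD (cut at about 60% in these data); inactive = the rest.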

Amino acid sequences for entries named in this document (tags omitted).
UniProt Q9Y6Q9, whole entry, looked up: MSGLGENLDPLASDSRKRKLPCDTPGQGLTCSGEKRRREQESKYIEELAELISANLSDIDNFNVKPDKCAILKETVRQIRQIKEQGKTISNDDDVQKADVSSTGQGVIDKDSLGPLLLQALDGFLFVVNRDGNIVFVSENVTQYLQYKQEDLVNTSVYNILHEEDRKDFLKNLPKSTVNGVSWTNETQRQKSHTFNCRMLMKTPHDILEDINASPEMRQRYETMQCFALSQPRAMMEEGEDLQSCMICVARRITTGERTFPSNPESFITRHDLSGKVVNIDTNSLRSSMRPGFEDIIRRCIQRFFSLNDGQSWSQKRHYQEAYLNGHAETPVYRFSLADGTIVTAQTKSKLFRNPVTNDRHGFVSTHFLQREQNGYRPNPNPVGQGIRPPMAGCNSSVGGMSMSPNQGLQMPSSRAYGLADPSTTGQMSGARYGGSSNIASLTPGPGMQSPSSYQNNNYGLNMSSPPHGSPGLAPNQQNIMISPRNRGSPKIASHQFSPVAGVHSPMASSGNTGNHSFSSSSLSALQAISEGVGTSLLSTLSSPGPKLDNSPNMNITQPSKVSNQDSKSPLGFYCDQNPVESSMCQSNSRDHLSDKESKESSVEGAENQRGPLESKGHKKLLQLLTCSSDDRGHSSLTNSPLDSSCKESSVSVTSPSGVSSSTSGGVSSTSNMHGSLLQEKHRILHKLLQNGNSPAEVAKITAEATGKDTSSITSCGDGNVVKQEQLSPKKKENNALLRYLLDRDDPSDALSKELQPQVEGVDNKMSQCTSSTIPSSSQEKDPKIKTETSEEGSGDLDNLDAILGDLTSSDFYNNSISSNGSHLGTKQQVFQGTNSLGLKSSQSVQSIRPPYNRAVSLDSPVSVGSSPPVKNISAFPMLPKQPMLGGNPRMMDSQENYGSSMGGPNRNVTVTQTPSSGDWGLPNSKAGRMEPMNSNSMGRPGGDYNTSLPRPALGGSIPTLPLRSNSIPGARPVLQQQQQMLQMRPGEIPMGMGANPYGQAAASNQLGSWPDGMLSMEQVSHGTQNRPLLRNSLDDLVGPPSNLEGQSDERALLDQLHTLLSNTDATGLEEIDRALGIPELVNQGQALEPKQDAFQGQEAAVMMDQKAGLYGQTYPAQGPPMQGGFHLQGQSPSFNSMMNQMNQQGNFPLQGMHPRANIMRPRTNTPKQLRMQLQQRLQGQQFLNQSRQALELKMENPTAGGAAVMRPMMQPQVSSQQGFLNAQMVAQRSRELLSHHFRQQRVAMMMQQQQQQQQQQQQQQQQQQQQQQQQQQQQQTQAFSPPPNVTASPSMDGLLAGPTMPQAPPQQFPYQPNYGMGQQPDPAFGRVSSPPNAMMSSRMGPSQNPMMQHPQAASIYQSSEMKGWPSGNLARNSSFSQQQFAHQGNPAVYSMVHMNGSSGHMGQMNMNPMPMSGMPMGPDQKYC

What follows are compounds tested against Nuclear receptor coactivator 3 (Homo sapiens) (UniProt Q9Y6Q9) (assay: NCOA3 GAL4-fusion reporter inhibition – cell-based, luminescence, primary screen (AID 588352;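 note: 0% = DMSO-treated cells and 100% = gossypol-treated cells at 36 µM; higher means less SRC3-driven luciferase light from the GAL4 reporter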)). Conditions: HEK293 GAL4-SRC3 luciferase reporter, at 3.6 µM, hits give high values.
In the case of `O=[As](O)(c1cccs1)c1cccs1`, the inhibition is reported as inactive: -12.6%. `Cc1ccc(OCC(=O)OC2CN3CCC2CC3)cc1` (centres undefined) was tested, and the inhibition was inactive: -11.2%. For `Nc1cccc([As](=O)(O)c2ccccc2)c1`, the inhibition was inactive: -0.4%. For `Cc1nn(-c2ccccc2)c2c1P(=O)(N1CCOCC1)N(C)C(c1ccccc1)=N2` (centres undefined), the inhibition was inactive: 16%. `CC1CCC(C(C)C)C(OP(=O)(Nc2ccccn2)c2ccccc2)C1` (centres undefined) was tested, and the inhibition was inactive: 12.1%. `Cc1ccc(C(=O)OC2CN3CCC2CC3)cc1` (centres undefined) was tested, and the inhibition was inactive: 19.4%. For `O=C(/C=C/c1ccccc1)OC1CN2CCC1CC2` (centres undefined), the inhibition was inactive: -0.69%. For `CCCC1OP(=O)(Nc2ccccc2)OCC1CC` (centres undefined), the inhibition was inactive: -11%. In the case of `CN(C)C1(CNC(=O)c2ccc(S(C)(=O)=O)cc2)CCCCC1`, the inhibition is reported as inactive: -2.69%. `NC(=O)Nc1ccc([As](=O)(O)O)cc1` was tested, and the inhibition was inactive: -15.2%. `CN(C)C(=O)c1cc([N+](=O)[O-])cc2c1-c1c(cc([N+](=O)[O-])cc1[N+](=O)[O-])C2=O` was tested, and the inhibition was inactive: 15.6%. For `O=[N+]([O-])c1ccc2c(c1)nnn2O`, the inhibition was inactive: 5.91%. With `CN(C(=O)Cc1ccc(Cl)c(Cl)c1)[C@H]1CC[C@@]2(CCCO2)C[C@@H]1N1CCCC1` the inhibition was inactive: -5.88%. With `N#CCCN(C(=O)COC(=O)C(O)(c1ccccc1)c1ccccc1)c1ccc(F)cc1` the inhibition was inactive: 11.9%. In the case of `CCOP1(=S)c2c(C)nn(CCC#N)c2N=C(c2ccc(F)cc2)N1C` (centres undefined), the inhibition is reported as inactive: 13.8%. With `CN(C(=O)Cc1ccccc1)[C@@H]1CC[C@]2(CCCO2)C[C@H]1N1CCCC1` the inhibition was inactive: -10%. With `CS(=O)(=O)c1cc([N+](=O)[O-])c2no[n+]([O-])c2c1` the inhibition was inactive: -12.4%. In the case of `CCOP1(=S)c2c(C)nn(CCC#N)c2N=C(c2ccccc2F)N1C` (centres undefined), the inhibition is reported as inactive: -7.73%. In the case of `O=P(Nc1nccs1)(c1ccccc1)c1nc2ccccc2s1` (centres undefined), the inhibition is reported as inactive: -10.2%. In the case of `O=P(Nc1nccs1)(Oc1ccccc1)Oc1ccccc1`, the inhibition is reported as inactive: 14.1%. For `Nc1ccccc1[As](=O)(O)c1ccccc1`, the inhibition was inactive: 10.5%. `O=C(O)COc1ccc([As](=O)(O)O)cc1[N+](=O)[O-]` was tested, and the inhibition was inactive: 9.54%. With `CCCOP(=S)(Nc1nc(N)cc(=O)[nH]1)OCCC` the inhibition was inactive: 6.88%. For `Nc1cccc2c([As](=O)(O)O)cccc12`, the inhibition was inactive: -18%. In the case of `Cc1ccc(NCCc2c([N+](=O)[O-])cc([N+](=O)[O-])cc2[N+](=O)[O-])cc1`, the inhibition is reported as inactive: 2.24%. `COc1cc(C2NCCC3(OCCO3)C2(C)C)cc(OC)c1OC` (centres undefined) was tested, and the inhibition was inactive: 16.5%. `CCOP(=O)(Nc1cccc2ccccc12)OCC` was tested, and the inhibition was inactive: -54.1%. With `COc1cc(C(=O)NCC2(N3CCOCC3)CCCCC2)cc(Cl)c1OC(C)C` the inhibition was inactive: 10.1%. In the case of `O=[As](O)(O)c1cccnc1`, the inhibition is reported as inactive: 12.9%. `CS(=O)(=O)c1ccc(Cl)c(NC(=O)COC(=O)C(O)(c2ccccc2)c2ccccc2)c1` was tested, and the inhibition was inactive: -21.5%. With `O=C(OC1CN2CCC1CC2)c1ccc(Cl)cc1` (centres undefined) the inhibition was inactive: 15.5%. With `O=[As](O)(c1cccc(O)c1)c1cccc(O)c1` the inhibition was inactive: 4.17%. `Cc1cccc(OCC(=O)OC2CN3CCC2CC3)c1` (centres undefined) was tested, and the inhibition was inactive: 17.2%. `COc1ccc(N/C(=N/P(=O)(N2CCOCC2)N2CCOCC2)N2CCOCC2)cc1` was tested, and the inhibition was inactive: 2.76%. `O=[N+]([O-])c1cc(Oc2ccc([N+](=O)[O-])cc2C(F)(F)F)cc([N+](=O)[O-])c1` was tested, and the inhibition was inactive: 6.34%. In the case of `O=C(OC1CN2CCC1CC2)C12CC3CC(CC(C3)C1)C2` (centres undefined), the inhibition is reported as inactive: 12.1%. `Cc1cc(=O)[nH]c(N[N+](=O)[O-])n1` was tested, and the inhibition was inactive: 8.51%. For `Cc1c2c(nc3ccccc13)SC(C(Cl)Cl)C2` (centres undefined), the inhibition was inactive: -0.58%. In the case of `COc1ccc2nc(NP(=O)(c3ccccc3)c3ccccc3)sc2c1`, the inhibition is reported as inactive: 12.8%. In the case of `COc1cc(I)ccc1[As](=O)(O)O`, the inhibition is reported as inactive: 4.59%. `O=P1(N(CCCl)CCCl)OCCCN1CCCl` (centres undefined) was tested, and the inhibition was inactive: -8.95%. For `O=P1(N(CCCl)CCCl)Nc2ccccc2N1`, the inhibition was inactive: -124%. For `CC(C)c1ccc(OP(=O)(Nc2ccccn2)Oc2ccccc2F)cc1` (centres undefined), the inhibition was inactive: 19.8%. With `COC(=O)C1(C)COP(=O)(N2CCCCCC2)OC1` (centres undefined) the inhibition was inactive: -0.97%. `ClCCSc1nnc(-c2cccnc2)o1` was tested, and the inhibition was inactive: -5%. For `O=C(OC1CN2CCC1CC2)c1cccc2[nH]cnc12` (centres undefined), the inhibition was inactive: -11.8%. `CCN(CC)C(=S)SC(NC=O)C(Cl)(Cl)Cl` (centres undefined) was tested, and the inhibition was inactive: 13.7%. `CC(C)NC(=O)NP(=O)(Oc1ccccc1)Oc1ccccc1` was tested, and the inhibition was inactive: -0.21%. With `O=[N+]([O-])c1cc([N+](=O)[O-])c(-c2ccn[nH]2)s1` the inhibition was inactive: 7.56%. For `O=[As](O)(c1ccc(O)cc1)c1ccccc1O`, the inhibition was inactive: 11%. `C[As](=O)(O)c1cccc(C(=O)O)c1` was tested, and the inhibition was inactive: 3.92%. With `COc1cc(C(=O)NCC2(N3CCOCC3)CCCCC2)ccc1OCC(C)C` the inhibition was inactive: 7.69%. `O=[N+]([O-])c1ccc(-c2cc([N+](=O)[O-])c(O)c([N+](=O)[O-])c2)cc1` was tested, and the inhibition was inactive: 3.05%. For `Cc1ccc2nc3c(c(C)c2c1)CC(C(Cl)Cl)S3` (centres undefined), the inhibition was inactive: -29.7%. `Cc1ccc(OP(=O)(Nc2ccc([N+](=O)[O-])cn2)Oc2ccc(C)cc2)cc1` was tested, and the inhibition was inactive: -5.11%. With `CCOC(=O)Nc1cccc([As](=O)(O)O)c1` the inhibition was inactive: -5.12%. `O=[N+]([O-])c1ccc(Nc2ccc(Oc3ccc([N+](=O)[O-])cc3[N+](=O)[O-])cc2)c([N+](=O)[O-])c1` was tested, and the inhibition was inactive: 1.07%. For `O=P(Nc1ccccn1)(c1cccc2ccccc12)c1cccc2ccccc12`, the inhibition was inactive: 13.4%. In the case of `Cc1cc(SC(NC=O)C(Cl)(Cl)Cl)ncn1` (centres undefined), the inhibition is reported as inactive: 1.33%. With `CC1CCNP(=O)(N(CCCl)CCCl)O1` (centres undefined) the inhibition was inactive: -0.75%. In the case of `CCOC(=O)Nc1ccc([As](=O)(O)O)c(O)c1`, the inhibition is reported as inactive: 5.62%. In the case of `O=C(O)C(O)c1ccc(N(CCCl)CCCl)cc1` (centres undefined), the inhibition is reported as inactive: -18.6%. In the case of `CCCCOc1ccc(C(=O)NCC2(N3CCCCC3)CCCCC2)cc1OC`, the inhibition is reported as inactive: -14.5%. In the case of `Cc1cc(SC(NC(=O)c2ccccc2)C(Cl)(Cl)Cl)nc(C(C)C)n1` (centres undefined), the inhibition is reported as inactive: 12.7%. `COP(=O)(OC)N1CC1c1ccccc1` (centres undefined) was tested, and the inhibition was inactive: -0.47%. In the case of `CCOC(=O)c1ccc(NC(=O)C(C)(CCl)SC)cc1` (centres undefined), the inhibition is reported as inactive: -38.4%. With `O=C(OC1CN2CCC1CC2)c1cccc([N+](=O)[O-])c1` (centres undefined) the inhibition was inactive: 9.84%. `CSc1ccc(Nc2c([N+](=O)[O-])cc([N+](=O)[O-])cc2[N+](=O)[O-])cc1` was tested, and the inhibition was inactive: -21%. For `CCC(C)N(CC(C)C)C(=S)SC(NC(C)=O)C(Cl)(Cl)Cl` (centres undefined), the inhibition was inactive: -9.4%. `COP1(=S)c2c(C)nn(CCC#N)c2N=C(c2ccc(F)cc2)N1C` (centres undefined) was tested, and the inhibition was inactive: -4.11%. In the case of `COC(=O)C1(C)COP(=O)(N2CCCC2)OC1` (centres undefined), the inhibition is reported as inactive: 13.2%. In the case of `O=C(COc1ccccc1)OC1CN2CCC1CC2` (centres undefined), the inhibition is reported as inactive: -13.4%. In the case of `O=C(Nc1ccncc1[N+](=O)[O-])c1ccc([N+](=O)[O-])cc1[N+](=O)[O-]`, the inhibition is reported as inactive: 22.4%. In the case of `O=C(O)C(=O)c1ccc(N(CCCl)CCCl)cc1`, the inhibition is reported as inactive: 5.03%.
